Measurements: patent publication EP4703361A1, “PYRIDAZINONE TRPC4/5 INHIBITOR AND USE THEREOF” (Shanghai Institute of Materia Medica, Chinese Academy of …, priority 2023, dated 2024)
pIC50: −log10 of the molar value.

Biological target: T1, hTRPC5 (Homo sapiens, UniProt Q9UL62)
T1 construct: expressed in transfected cells; host or cells: HEK-293
T1 sequence (Q9UL62 1-973): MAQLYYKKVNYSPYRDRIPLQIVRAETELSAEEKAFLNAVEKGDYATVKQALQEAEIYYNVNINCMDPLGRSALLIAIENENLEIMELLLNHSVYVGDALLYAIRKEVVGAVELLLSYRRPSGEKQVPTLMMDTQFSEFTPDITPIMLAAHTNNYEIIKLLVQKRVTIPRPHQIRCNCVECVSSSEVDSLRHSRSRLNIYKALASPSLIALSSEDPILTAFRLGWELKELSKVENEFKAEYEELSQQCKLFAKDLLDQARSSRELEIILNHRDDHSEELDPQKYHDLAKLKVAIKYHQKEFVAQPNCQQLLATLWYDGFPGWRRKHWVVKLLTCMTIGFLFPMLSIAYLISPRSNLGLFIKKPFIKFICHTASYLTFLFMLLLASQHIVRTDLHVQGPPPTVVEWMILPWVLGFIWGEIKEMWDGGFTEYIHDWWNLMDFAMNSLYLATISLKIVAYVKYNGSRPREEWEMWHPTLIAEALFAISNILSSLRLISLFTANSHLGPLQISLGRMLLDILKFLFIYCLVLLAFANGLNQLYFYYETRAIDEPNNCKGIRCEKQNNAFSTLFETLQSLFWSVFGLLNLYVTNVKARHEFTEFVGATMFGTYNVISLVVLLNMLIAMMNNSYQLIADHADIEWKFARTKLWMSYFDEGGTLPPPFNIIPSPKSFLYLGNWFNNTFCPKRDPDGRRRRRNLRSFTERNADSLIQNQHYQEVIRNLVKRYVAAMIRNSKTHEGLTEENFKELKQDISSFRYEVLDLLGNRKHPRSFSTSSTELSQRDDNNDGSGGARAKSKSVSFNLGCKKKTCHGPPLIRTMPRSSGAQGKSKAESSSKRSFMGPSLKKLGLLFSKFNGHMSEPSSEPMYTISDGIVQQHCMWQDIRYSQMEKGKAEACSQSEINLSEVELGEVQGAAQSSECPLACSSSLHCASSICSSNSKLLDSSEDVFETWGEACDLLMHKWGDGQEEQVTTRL
Assay: TRPC5 inhibitory activity assay (FLIPR calcium flux, Fluo-4, agonist Englerin A)
Assay type: cell-based
Settings: HEK-293 cells expressing hTRPC5; agonist Englerin A 0.3 nM
Protocol: HEK-293 cells expressing hTRPC4 or hTRPC5 were seeded into polylysine (PDL)-coated, black-bottomed, transparent 96-well plates at 2 × 10^4 cells per well. After 8 h of culture, the culture medium was discarded and 60 µL of 4 µM Fluo-4/AM dye was added. The plates were incubated at 37°C for 60 min and then rinsed five times with calcium flux assay buffer. […] After recording for 60 seconds, solvent control, test compound and positive inhibitor were added, and the signal was collected for another 300 seconds. Then, the agonist Englerin A (EA) (MedChemExpress, Shanghai, China, final concentration of 0.3 nM) was added, and the fluorescence signal was collected for another 600 seconds. The fluorescence signal in the trajectory diagram was expressed as F/F0, wherein F was the fluorescence signal at different time points and F0 was the basic fluorescence signal, that is, the average of the fluorescence signals at the first 10 time points. The dose-effect curve is first established with F/F0 = 1 as the baseline. The area under the curve of the fluorescence intensity change after the addition of EA was calculated. The IC50 value was calculated using the log[Inhibitor] vs. response - Variable slope, combining the area under the curve and the log value of the compound concentration.

In the case of COC(c1cc(F)ccc1Cl)c1c(Br)nc2n1CCN(c1cn[nH]c(=O)c1Cl)C2 (stereo not shown) [Example E44, 5-(2-bromo-3-((2-chloro-5-fluorophenyl)(methoxy)methyl)-5,6-dihydroimidazo[1,2-a]pyrazin-7(8H)-yl)-4-chloropyridazin-3(2H)-one], the pIC50 was 7.34.
